# Source: publication PMC10879876, “Activatable prodrug for controlled release of an antimicrobial peptide via the proteases overexpressed in Candida albicans and Porphyromonas gingivalis” (Theranostics, 2024)
# Amino acid sequences for entries named in this document (tags omitted). Residues count along the entry.
# UniProt P95493, 230-736: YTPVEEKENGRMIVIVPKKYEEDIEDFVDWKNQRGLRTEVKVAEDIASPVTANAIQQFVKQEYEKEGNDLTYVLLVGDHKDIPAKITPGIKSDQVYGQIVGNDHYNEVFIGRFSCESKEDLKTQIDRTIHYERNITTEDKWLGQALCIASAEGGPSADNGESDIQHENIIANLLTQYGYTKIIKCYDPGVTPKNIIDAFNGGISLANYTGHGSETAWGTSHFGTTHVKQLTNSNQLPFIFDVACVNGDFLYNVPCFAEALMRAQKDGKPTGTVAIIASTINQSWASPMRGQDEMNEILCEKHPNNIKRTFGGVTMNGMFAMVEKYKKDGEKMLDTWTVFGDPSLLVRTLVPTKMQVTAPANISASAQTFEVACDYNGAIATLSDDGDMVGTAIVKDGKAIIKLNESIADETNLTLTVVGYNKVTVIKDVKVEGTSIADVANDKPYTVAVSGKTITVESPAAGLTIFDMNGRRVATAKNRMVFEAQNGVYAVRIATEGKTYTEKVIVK
# Biological target: RgpB (Porphyromonas gingivalis, UniProt P95493)
# Settings: RgpB [E]active 200 nM, Michaelis-Menten fit
substance,measurement,value
Ala – Gly – Pro – Arg – Ile – Asp – Lys [RgpB FRET Probe],Km,7 µM
same,kcat,0.501 s⁻¹
